Earlier results as cited in patent US20080031887A1, “Conjugates for inducing targeted immune responses and methods of making and using same” (priority 2006, published 2008).

Tested on: breast cancer
Details: breast cancer patients; cited from earlier work

## herceptin: anti-human-neu mAb
  tumor growth: delays tumor growth
